## Measured affinities in a library of Ab-91 heavy chain variants

Source: Engelhart et al. 2022 (doi:10.1038/s41597-022-01779-4), MIT Lincoln Laboratory and A-Alpha Bio; data file from the FLAb repository.

The target is the same throughout: PDVDLGDISGINAS, from the HR2 region of SARS-CoV-2 spike.

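Variants in AAYL51 differ from the parent at up to three CDR positions; double and triple changes were sampled at random. Affinity was read by AlphaSeq, a pooled yeast mating assay with surface-displayed partners. Binding brings cells together so that they mate, and sequencing counts the barcode pairs among the diploids. Each replicate has its own calibration line, from reference interactions of the BCL2 family. There are three technical replicates.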

The variants keep the light chain, the linker and the frameworks of Ab-91 (scFv order VL, a (GGGGS)3 linker, VH).
VL: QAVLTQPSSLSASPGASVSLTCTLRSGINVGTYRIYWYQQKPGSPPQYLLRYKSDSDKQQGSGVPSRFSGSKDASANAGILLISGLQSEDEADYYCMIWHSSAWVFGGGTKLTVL
VH: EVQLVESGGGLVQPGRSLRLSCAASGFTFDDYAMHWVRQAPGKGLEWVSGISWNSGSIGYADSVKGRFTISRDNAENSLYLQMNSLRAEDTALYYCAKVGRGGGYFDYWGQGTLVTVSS

Each variant is given by its three heavy chain CDRs, as the data file delimits them; those of the parent are GFTFDDYAMH, GISWNSGSIGYADSVK, VGRGGGYFDY.
Values are log10 of the apparent Kd in nM; lower means stronger binding.
The mean shown is taken over the replicates in which the pair was detected.
Where no diploid with the target was found in that replicate, the entry reads "n.d.": below detection, most likely a poor binder, though not proof of it.
For reference, the parent read 1.86 as the reference entry and 0.88 as a member of this library.

CDR-H1	CDR-H2	CDR-H3	log10 Kd, replicates	mean log10 Kd (nM)	control signals
GFTFDDYAMH	GQSWNSGRIGYADPVK	VGRGGGYFDY	5.71 / 5.54 / n.d.	5.63	3 of 9 (5.00)
GFTFDWFAMH	GISWNSGSIGYADSFK	VGRGGGYFDY	n.d. / n.d. / n.d.	n.d.	1 of 9 (2.67)
GFTYDRYAMG	GISWNSGSIGYADSVK	VGRGGGYFDY	5.51 / n.d. / n.d.	5.51	3 of 9 (3.98)
GFTFDDYSMH	GISWNSGSIGYADSVK	VGRGGGWFDY	2.12 / 2.47 / 1.91	2.17	4 of 9 (4.33)
DFTYDDYAMH	GISWNSCSIGYADSVK	VGRGGGYFDY	n.d. / n.d. / n.d.	n.d.	1 of 9 (4.53)
RFTFDDYAMH	GISWNSGSIGYADSFK	YGRGGGYFDY	n.d. / n.d. / n.d.	n.d.	0 of 9
GFTFDDYAMG	GYSWNSGSIGYASSVK	VGRGGGYFDY	n.d. / 4.90 / n.d.	4.90	3 of 9 (4.89)
GFTFDDYAMH	GISWNSGSIGYADQVK	VGRGGGYFDY	5.33 / n.d. / n.d.	5.33	4 of 9 (4.16)
GFTFDDYAMH	GISWNMGSAGYADSVK	VGRGGGYFDY	n.d. / n.d. / n.d.	n.d.	2 of 9 (3.80)
GFYFDDYAMH	GRSWNSGSIGYAMSVK	VGRGGGYFDY	n.d. / 3.93 / n.d.	3.93	1 of 9 (3.63)
GFTFDDYAMH	GISHNSGAIGYAISVK	VGRGGGYFDY	n.d. / n.d. / n.d.	n.d.	1 of 9 (3.45)
GDTFDDYAMH	GISWNSGDIGYNDSVK	VGRGGGYFDY	n.d. / n.d. / n.d.	n.d.	3 of 9 (4.31)
GFTFDDYAMH	GISWNSGSRGNAWSVK	VGRGGGYFDY	n.d. / n.d. / n.d.	n.d.	1 of 9 (3.18)
DFTCDDYAMH	GISWNSGSIGYADSVK	VGREGGYFDY	n.d. / n.d. / n.d.	n.d.	1 of 9 (3.23)
GFTFDDFAMH	GISTNSGSIGYADEVK	VGRGGGYFDY	1.12 / 1.10 / 0.71	0.98	3 of 9 (4.40)
GFAFDDYAMH	GISWNSGSFGYADSVK	VGRGGGYFHY	n.d. / n.d. / n.d.	n.d.	0 of 9
GFTFDDYAMH	GIVWISGDIGYADSVK	VGRGGGYFDY	6.13 / 5.31 / 5.77	5.74	3 of 9 (5.07)
QFTFDDYAMH	GISWNSGSIGYLDSVK	VGRGGGYFDP	n.d. / n.d. / n.d.	n.d.	0 of 9
GFTFDDYKMH	CISWNSGSIGYADSVK	VGRGGGGFDY	n.d. / 4.67 / n.d.	4.67	3 of 9 (5.13)
GFTFDDYAMH	GISWNSGPIGYADSHK	VGRGGGTFDY	3.21 / 5.84 / n.d.	4.52	2 of 9 (3.73)
VFTFDDYAMH	GISWNSGSIGYADSCK	VGRGGGYFDY	4.87 / 4.57 / 5.80	5.08	5 of 9 (5.27)
GLTFDDYAMH	GISWNSGSIGGADSVK	VGRGGGYIDY	n.d. / n.d. / n.d.	n.d.	0 of 9
GFTFDDYAMH	GISWNSGGIGYAYIVK	VGRGGGYFDY	4.97 / n.d. / n.d.	4.97	2 of 9 (5.78)
GFLFDDIAGH	GISWNSGSIGYADSVK	VGRGGGYFDY	n.d. / n.d. / 3.19	3.19	4 of 9 (4.66)
GFTFDDYAMH	GISWNFGSIGYAPSVK	VGRGGGQFDY	5.24 / 6.36 / n.d.	5.80	3 of 9 (4.56)
GQTFDDYAMH	GIEWNSGSIGYADSVK	VGRGGGYFPY	4.06 / 3.33 / n.d.	3.69	0 of 9
VFTMDDYAMH	GISWNSGSIGYWDSVK	VGRGGGYFDY	n.d. / n.d. / n.d.	n.d.	1 of 9 (4.08)
GFTFDDNAMH	GISRNSGSIGYADMVK	VGRGGGYFDY	3.09 / n.d. / 2.32	2.71	0 of 9
GFTFDDYAKH	GISWNSGSIGYADSVK	VIRGGGYGDY	4.97 / n.d. / n.d.	4.97	3 of 9 (4.93)
GFTFDDYAMH	GLSWNYGSIGYADSTK	VGRGGGYFDY	4.29 / 5.04 / n.d.	4.67	7 of 9 (4.68)
GFTFDDYAMH	GIHWNSGSIGYADSVK	VVRGGGYFDY	n.d. / n.d. / 5.20	5.20	1 of 9 (3.35)
SFTFDDYAMH	GISANSGSIGYADSVK	VGRGGGYFDC	n.d. / n.d. / n.d.	n.d.	4 of 9 (5.09)
GFTFDDYAMG	GNSWNSGSIGYADSVK	VGRGGGYFYY	n.d. / 3.79 / 3.87	3.83	5 of 9 (4.51)
GFTFDDYAMH	GISWNSGSPGYADSVW	VGRCGGYFDY	n.d. / 3.66 / n.d.	3.66	0 of 9
GWTDDDYAMH	GISWNSGSIGYADSVK	VGRGGGYFHY	n.d. / 5.00 / 4.23	4.62	3 of 9 (4.13)
GFYFNDYAMH	GISWNSGSIGYADSVK	VGRGGGYYDY	2.60 / 2.76 / 2.81	2.72	7 of 9 (5.16)
GFTFFDYAMH	GWSWNSGSIGYADSVK	VQRGGGYFDY	n.d. / n.d. / 4.30	4.30	5 of 9 (4.95)
GFTFDEYAMH	GMSWNSGWIGYADSVK	VGRGGGYFDY	3.01 / n.d. / 3.71	3.36	3 of 9 (3.55)
NFTFDDYAMH	GISRNSGSIGYADSVK	VGVGGGYFDY	3.82 / 4.12 / 2.77	3.57	3 of 9 (4.06)
GFTFDDYAMH	GISWNSGSIGYADSVK	VGQGGGYFDY	1.58 / 1.72 / 1.24	1.51	6 of 9 (4.67)
GFTFDDYAMH	YISWNSGSIGYADSVK	DGRGGGYSDY	n.d. / 4.44 / n.d.	4.44	3 of 9 (3.78)
GITFDDPAMH	GISWNRGSIGYADSVK	VGRGGGYFDY	5.04 / n.d. / n.d.	5.04	6 of 9 (4.97)
GFTFDTYAMH	GISWNSPSIGYADSVK	VGRGGGYFVY	n.d. / n.d. / n.d.	n.d.	1 of 9 (5.13)
GFTFDDYAMH	GISWNSGSIGYMMSVK	VGRGGGYFAY	4.30 / 4.27 / 3.85	4.14	2 of 9 (4.49)
GFTFDDYAMH	GISWNSGSIGYADSVK	VGRGGGYSDY	4.35 / n.d. / 5.49	4.92	6 of 9 (4.83)
GFTFHDYAMH	GILWNSGSIGYADSVK	VGRGGGYFDI	n.d. / n.d. / n.d.	n.d.	1 of 9 (3.33)
GFTFDDYAYH	GISQNSGTIGYADSVK	VGRGGGYFDY	n.d. / n.d. / n.d.	n.d.	2 of 9 (4.98)
GFTVDDYAMH	GISWNSGSQGYADSVK	VFRGGGYFDY	n.d. / 5.30 / n.d.	5.30	0 of 9
GFLFDDKAMH	GISWNSGSIGYADSVF	VGRGGGYFDY	4.68 / n.d. / n.d.	4.68	2 of 9 (4.12)
GFTFDDYAMH	GCSWNSGSIGYADSVK	VGRGGGYFDY	n.d. / n.d. / n.d.	n.d.	0 of 9
GFTFDDYAMH	GISWNSGSIGYCDSNK	VGRGLGYFDY	4.63 / n.d. / 3.05	3.84	2 of 9 (4.45)
GFTFDDYAMH	KISWNSGSIGYADSVK	VGIGVGYFDY	n.d. / n.d. / n.d.	n.d.	0 of 9

Extract of 4 entries:

CDR-H1	CDR-H2	CDR-H3	log10 Kd, replicates	mean log10 Kd (nM)	control signals
VFTMDDYAMH	GISWNSGSIGYWDSVK	VGRGGGYFDY	n.d. / n.d. / n.d.	n.d.	1 of 9 (4.08)
GFYFDDYAMH	GRSWNSGSIGYAMSVK	VGRGGGYFDY	n.d. / 3.93 / n.d.	3.93	1 of 9 (3.63)
NFTFDDYAMH	GISRNSGSIGYADSVK	VGVGGGYFDY	3.82 / 4.12 / 2.77	3.57	3 of 9 (4.06)
GFTFDDYAMH	GISWNSGSIGYADQVK	VGRGGGYFDY	5.33 / n.d. / n.d.	5.33	4 of 9 (4.16)

Background: pairings of library AAYL51 with three empty control strains gave a value in 21% of cases (median 4.54, 5th percentile 3.26). Values in that range, when seen in few replicates, are hard to tell from nonspecific mating. For each scFv, signals with the empty controls are counted beside the result, with their mean in brackets.